# Yeast mating assay 1: variants of the scFv Ab-14

Target: peptide PDVDLGDISGINAS, taken from heptad repeat 2 (HR2) of SARS-CoV-2 spike.

Each scFv is VH, three GGGGS repeats, VL, as in the parent Ab-14, and differs from it in the CDRs of the heavy chain only.
VH: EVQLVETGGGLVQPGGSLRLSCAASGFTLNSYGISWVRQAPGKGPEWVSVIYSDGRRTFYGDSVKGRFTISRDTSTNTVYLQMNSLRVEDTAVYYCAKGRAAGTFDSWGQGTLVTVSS
VL: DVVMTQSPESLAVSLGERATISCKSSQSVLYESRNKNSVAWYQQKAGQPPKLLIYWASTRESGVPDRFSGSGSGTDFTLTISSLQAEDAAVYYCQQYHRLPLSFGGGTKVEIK

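Phage display of a naive human antibody library on the peptide gave the parent. In library AAYL49, one, two or three CDR residues were substituted; doubles and triples were drawn at random. The scFvs were displayed on barcoded MATa yeast, the peptide on MATalpha yeast. Mating (16 h, 30 °C) was followed by selection of diploids and sequencing of their barcodes. Scores were corrected for input abundance and mapped to Kd with protein pairs of known affinity run in the same pool. The assay was run in three technical replicates.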

The parent's heavy chain CDRs are GFTLNSYGIS, VIYSDGRRTFYGDSVK, GRAAGTFDS; each variant's own CDRs replace them letter for letter. Every variant below is changed at D54 of the VH (sequential numbering). The Kd shown is the geometric mean over detected replicates; a lower Kd is a better binder. A pair that was not seen in any replicate is written "no signal"; this usually means weak binding, but a binder can also be missed.

The variant GFTLNSYGIS / VIYSACRRTFYGDQVK / GRAAGTFDS showed no signal (0 of 3 replicates). For GFTLNSYGIS / VIYSSFRRTFYGDSVK / GRAYGTFDS, the assay gave 39 µM (1 of 3 replicates). With GFTLNSEGIS / VIYSPGRRTFYGDSVF / GRAAGTFDS the result was no signal (0 of 3 replicates). For GFTLNSYPIS / VIYSEGRRDFYGDSVK / GRAAGTFDS, the assay gave no signal (0 of 3 replicates). The variant GFTVNSYGIS / VIYSIGRRTFYGDSAK / GRAAGTFDS gave no signal (0 of 3 replicates). The variant GFTLNSYGIS / VIYSIGRYTFYGDSVK / GRAAVTFDS gave no signal (0 of 3 replicates).

For GFTLNSYPIS / VIYSHGRRTPYGDSVK / GRAAGTFDS, the assay gave 20 µM (1 of 3 replicates). The variant GFTLNSYGIS / VIYSGGRWTFYGDSVK / GFAAGTFDS gave no signal (0 of 3 replicates). With GFTLNSYGIS / VIYSPGRRTFYGDSVK / GRAAGTFDS the result was 120 µM (3 of 3 replicates). The variant GFTLNSYGIS / VIYSQGRRTFYGDRVK / GRAAGTFDD showed 22 µM (2 of 3 replicates). For GFTLNSYGIS / VIYTGGRRHFYGDSVK / GRAAGTFDS, the assay gave no signal (0 of 3 replicates). For GFTLNSYGES / VIYSPGPRTFYGDSVK / GRAAGTFDS, the assay gave no signal (0 of 3 replicates).

With GFTLNSYGIS / VIYSMGRRTFYSDSVK / GRAAGTFDS the result was 48 µM (2 of 3 replicates). With GFTLNSYGIS / VIYSPGRRTFYGHSVK / GRAAQTFDS the result was no signal (0 of 3 replicates). For GFTLNSYGIS / VIYSCGIRTFGGDSVK / GRAAGTFDS, the assay gave 32 µM (1 of 3 replicates). The variant GFTWNSYKIS / VIYSWGRRTFYGDSVK / GRAAGTFDS showed no signal (0 of 3 replicates). With GFTLLSYGIS / VIYSWGRRFFYGDSVK / GRAAGTFDS the result was 29 µM (2 of 3 replicates). For GFTLNSYFIS / VIYSMGRRTIYGDSVK / GRAAGTFDS, the assay gave 3.7 µM (1 of 3 replicates).

With GFTLNSYGIS / VIYSAGRRTFYGDSVK / GRAAGTFDS the result was no signal (0 of 3 replicates). With GFTLNSYGIS / VIYSMGRRTFYGDSVK / GRRAGTFDS the result was no signal (0 of 3 replicates). With GFTLNSYGIS / VIYSKGDRTFYGDSVK / GRAAGMFDS the result was no signal (0 of 3 replicates). The variant GFTLNSYGIS / VNYSRGRRTFYGDSVK / WRAAGTFDS gave 6.6 µM (3 of 3 replicates). The variant GFTCNSYGIS / VIYSGGRRQFYGDSVK / GRAAGTFDS showed no signal (0 of 3 replicates). The variant GFTLNSFGIS / VIYSCGRRQFYGDSVK / GRAAGTFDS gave no signal (0 of 3 replicates).

With HFTLNSYGIV / VIYSKGRRTFYGDSVK / GRAAGTFDS the result was 4.0 µM (1 of 3 replicates). With GFTLWSYGIP / VIYSYGRRTFYGDSVK / GRAAGTFDS the result was no signal (0 of 3 replicates). With GHTLNSYGIS / VIYSVGQRTFYGDSVK / GRAAGTFDS the result was no signal (0 of 3 replicates). With GFTLNSYGIS / VIWSEGRRTFYGDSVK / GRAAGTFDS the result was no signal (0 of 3 replicates). With GFTLNSYGIS / VIYSGGRRTFWGDAVK / GRAAGTFDS the result was 34 µM (2 of 3 replicates). The variant GFTLNSYGIS / VIYSWGRRTFYGDSVK / GWKAGTFDS gave no signal (0 of 3 replicates).

For GFTLNSYGIS / VIYSRGRRTFYGDSVK / YRAAGTFDL, the assay gave 170 µM (1 of 3 replicates). With GFTLNSYGIS / VIYSFGRRTFYGDSVD / GRAPGTFDS the result was no signal (0 of 3 replicates). With GFTLNSYGIS / VIYSRGRMTFYGDSVK / GRAAGTFDR the result was 6.0 µM (1 of 3 replicates). The variant YFTLNSYGIS / VIYSEGRRTFYGDSVK / GRAAGTFNS gave no signal (0 of 3 replicates). The variant GFTLNSYGIS / VIYIEGRRTFYGDSVK / GRAASTFDS gave 1.9 µM (1 of 3 replicates). The variant GMTLNSYGIS / VIYSGARRTFYGDSVK / GRAAGTFDS showed 81 µM (1 of 3 replicates).

With GFTLNSYGIS / VIYSKGRRTFYDDSVK / GRAKGTFDS the result was no signal (0 of 3 replicates). With GFTLNSYGIS / VITLPGRRTFYGDSVK / GRAAGTFDS the result was no signal (0 of 3 replicates). For GFTLNSYGIS / VIYSLGRSTFYGDSVK / GRATGTFDS, the assay gave no signal (0 of 3 replicates). The variant GFTLNSYGIS / DIYSYGDRTFYGDSVK / GRAAGTFDS gave no signal (0 of 3 replicates). With GFTLNSYGIS / VIYSAGRRTFYGDSVK / GGAAGTFDS the result was 9.6 µM (2 of 3 replicates). For GFTLNSYGIS / PIYSPGRRTFYGDSEK / GRAAGTFDS, the assay gave no signal (0 of 3 replicates).

With GFTLNSYGIS / VIYSNGRRTFYGDSVK / GRAAGTYDS the result was no signal (0 of 3 replicates). The variant GFTLNSYGIS / VHTSAGRRTFYGDSVK / GRAAGTFDS showed no signal (0 of 3 replicates). With GFTLNSYGIS / VIYGKGRRTFYGDSVK / GRAAGRFDS the result was no signal (0 of 3 replicates). The variant GFTLNSYGIS / VKYSEGRRTFYGDSVK / GRAADTFDS showed 3.1 µM (1 of 3 replicates). The variant GFTLNSYQIS / VIYSGGRRTFYHDSVK / GRAAGTFDS showed 2.0 µM (1 of 3 replicates). The variant GFTLNSYGIS / VIYSPGRRTFYGDSVK / HRAQGTFDS gave no signal (0 of 3 replicates).

For GTTLNSYGIS / VIYSYGRRTFYGDSVK / GRAAGTFDS, the assay gave no signal (0 of 3 replicates). For GFTLNSYEIS / VIYCCGRRTFYGDSVK / GRAAGTFDS, the assay gave no signal (0 of 3 replicates). The variant GFTLNSYGIS / VIYGCGRRTFYGDSVK / GRAAGTFDS gave no signal (0 of 3 replicates). The variant GFTLNSYGIS / VIYSQGRRLFYGDSVK / FRAAGTFDS gave no signal (0 of 3 replicates).

Picked from the list: the 2 lowest averages where every replicate gave a value.

CDR-H1	CDR-H2	CDR-H3	Kd (apparent)	seen in
GFTLNSYGIS	VNYSRGRRTFYGDSVK	WRAAGTFDS	6.6 µM	3/3
GFTLNSYGIS	VIYSPGRRTFYGDSVK	GRAAGTFDS	120 µM	3/3

As a blank, each scFv also met three strains without target: over library AAYL49, 15% of these pairings were detected, typically at 11 µM and seldom below 680 nM.

Reference: Engelhart et al. 2022, doi:10.1038/s41597-022-01779-4. File: FLAb, binding data.